Values of other authors in patent US7976847B2, “Controlled release CGRP delivery composition for cardiovascular and renal indications” (VasoGenix Pharmaceuticals, Inc., priority 2004, dated 2011).
Several values for one entry are separate records, joined by “and”; a condition that tells them apart may be missing. Identical values can stand only once. Like-named read-outs stand apart in the source and are kept apart here.

Columns and labels:
[1] = 600 ng/min
[2] = IV infusion 10 or 20 minutes at 0.8, 3.2, or 16 ng/kg/min
[3] = 8 ng/kg/min IV infusion for 8 hours
[4] = IV dose of 560 ng/min (0.008 μg/kg/min)

Calcitonin gene-related peptide [CGRP]
patients in whom infusion was discontinued after 28 hours due to nausea, diarrhea, and/or severe facial flushing ([1]; 48-hour continuous IV infusion): 3 out of the 6
hemodynamic functions such as left ventricular function ([1]; pulsed therapy): improve hemodynamic functions
tolerability ([1]; pulsed therapy, 2-8 hour infusions for two consecutive days): well tolerated
cardiac output [2]: increase in cardiac output
systemic vascular resistance [2]: decreased systemic vascular resistance
tachycardia [2]: no tachycardia observed
cardiac output [3]: increased cardiac output
pulmonary and systemic arterial pressure [3]: decreased pulmonary and systemic arterial pressure
time after stopping CGRP infusion until hemodynamic effects were lost [3]: ≤ 30 min
vascular resistance [3]: decreased vascular resistance
renal blood flow and glomerular filtration ([3]; during treatment): increased
peak plasma levels of CGRP [4]: 157 ± 26 pg/mL
time in which peak plasma levels are obtained [4]: ≤ 60 min
steady state plasma level found to produce beneficial hemodynamic responses (corresponds to IV dose of 560 ng/min (0.008 μg/kg/min)): 157 ± 26 µg/mL
duration of IV administration before unwanted side effects set in (intravenous doses giving the effective plasma levels): 12 to 24 h
effective circulating plasma levels of CGRP (intravenous infusions, Stage C and D HF patients (Anand et al. 1991, Shekhar et al. 1991)): 157 ± 26 pg/mL and 186 ± 127 pg/mL
